# Source: patent US6979682B2, “Platelet-activating factor antagonist inhibition of angiogenesis and tumor growth induced by basic fibroblast” (Board of Supervisors of Louisiana State University and …, priority 2001, dated 2005)
# Tested on: human prostatic carcinoma cells, PC-3 (subcutaneous xenografts)
# Test: subcutaneous PC-3 xenografts in nude mice, tumor volume
# Format: in vivo, NCr athymic nude mice
# Settings: tumors expanded to 100 mm^3 before treatment; treatment days 13-31; 120 mg/kg BN-50730 and/or 1,000 U IFN-2a; p<0.001, F-test
# Procedure: Pathogen-free 4 to 6 week-old male NCr athymic nude mice (Taconic, Germantown, N.Y.) were housed in sterilized, filter-topped cages kept in laminar flow isolators (Forma Scientific, Marietta, Ohio), and fed autoclaved food and water ad libitum. Four animals were housed in each cage. Mice were acclimated to the vivarium for one week prior to their use in study protocols. All procedures involving the mice were performed under sterile conditions in a laminar flow hood (Forma Scientific). All studies were approved by the institutional animal care and use committee.
# Human PC-3 prostate cancer cells (2×10^6 cells; American Type Culture Collection CRL-1435) were inoculated subcutanteously into the flanks of nude mice in 0.1 ml HBSS (Hank's balanced salt solution) (Life Technologies). […] For tumors implanted subcutaneously, tumors were measured in a blind fashion with dial calipers, and the volume was calculated using the formula ½*π(W*L*H).
# Potential anti-angiogenic and anti-tumor effects of the PAF antagonist BN-50730 were tested on human tumor xenografts in the NCr athymic nude mice. […] Animals were sacrificed at day 13, 17, 21 and 28, and the volumes of the subcutaneous tumors were measured using dial calipers and the formula ½*π(W*L*H) as described in Example 1. […]
substance,measurement,value
"IFN-2a: FDA human-approved antiangiogenic compound, human IFN-2a (Sigma Chemical Co.) [reference compound]",tumor size of established PC-3 xenografts vs control animals,significantly smaller tumors
